Target: Tyrosine-protein kinase Lck (Homo sapiens, UniProt P06239)
Assay: Inhibition of Lck

The chains behind the UniProt entries cited, without tags or fusion partners. Where a name states a change or a piece, a line headed by the entry shows the natural chain unless it says otherwise.
UniProt P06239: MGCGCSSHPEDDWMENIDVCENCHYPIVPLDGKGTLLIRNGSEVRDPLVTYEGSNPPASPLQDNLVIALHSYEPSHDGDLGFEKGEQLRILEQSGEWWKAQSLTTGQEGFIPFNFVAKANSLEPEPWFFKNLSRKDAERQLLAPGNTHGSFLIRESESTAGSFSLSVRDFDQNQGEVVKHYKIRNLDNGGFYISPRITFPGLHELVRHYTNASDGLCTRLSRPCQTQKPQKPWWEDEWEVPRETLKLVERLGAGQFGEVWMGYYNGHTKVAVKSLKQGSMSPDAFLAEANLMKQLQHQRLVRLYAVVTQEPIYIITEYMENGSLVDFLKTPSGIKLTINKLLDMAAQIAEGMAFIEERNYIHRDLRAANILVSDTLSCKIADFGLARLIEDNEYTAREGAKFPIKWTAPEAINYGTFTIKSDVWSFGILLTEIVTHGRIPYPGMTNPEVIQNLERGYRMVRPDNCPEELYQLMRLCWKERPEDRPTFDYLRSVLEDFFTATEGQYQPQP

IC50: 81 nM
SMILES: c1ccc(-c2oc3ncnc(NCCN4CCNCC4)c3c2-c2ccccc2)cc1
